{"source": "patent US8426463B2", "about": "“[((1R,2S,5R)-2-isopropyl-5-methyl-cyclohexanecarbonyl)-amino]-acetic acid isopropyl ester and related compounds and their use in therapy” (priority 2011, dated 2013)", "system": "Salmonella typhimurium tester strain TA1535", "assay": "Ames test in TA1535 with and without S9-mix (Notox)", "details": "absence and presence of S9-metabolic activation", "data": [{"smiles": "CC(C)OC(=O)CNC(=O)[C@@H]1C[C@H](C)CC[C@H]1C(C)C", "note": "[Gly-O-iPr, [((1R,2S,5R)-2-isopropyl-5-methyl-cyclohexanecarbonyl)-amino]-acetic acid isopropyl ester]", "values": [{"measurement": "increase in the number of revertant (His+) colonies", "result": "did not induce a significant dose-related increase"}]}]}
